Structures can show the parent of a compound that is named as a salt.
Assays:
SH-SY5Y cells [1] = system: SH-SY5Y cells
SH-SY5Y cells [2] = system: SH-SY5Y cells; remark: listed apart in the source
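For ThS net change in this document: 30 µM compound with 6 µM p-tau over 16 h.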

`CNCC[C@@H](Oc1cccc2ccccc12)c1cccs1.Cl` [(R)-Duloxetine hydrochloride] gave a ThS net change (1N4R p-tau) of 497.

With `CN1CCc2cccc3c2[C@H]1Cc1ccc(O)c(O)c1-3` [Apomorphine, R-(−)-apomorphine hydrochloride] the “cytotoxicity of p-tau C/A and C/S mutants” value (SH-SY5Y cells [1]) was “reduction of p-tau C/A and C/S cytotoxicity” and the “effect on LD50 of p-tau” value (SH-SY5Y cells [2]) was “caused the LD50 values of p-tau to increase progressively”.

With `C[C@@H]1C[C@H]2[C@@H]3C[C@H](F)C4=CC(=O)C=C[C@]4(C)[C@@]3(F)[C@@H](O)C[C@]2(C)[C@@]1(O)C(=O)CO` [Flumethasone] the ThS net change (1N4R p-tau) was 377.

With `CCN(Cc1ccncc1)C(=O)C(CO)c1ccccc1` (stereo not drawn) [Tropicamide] the ThS net change (1N4R p-tau) was 345.

For Thimerosal, the ThS net change (1N4R p-tau) was 377.

— article PMC7539012, “Hyperphosphorylated tau aggregation and cytotoxicity modulators screen identified prescription drugs linked to Alzheimer's disease and cognitive functions” (Scientific Reports, 2020)
